Experimental data taken from patent EP4831176A1, “BICYCLIC FUSED HETEROAROMATIC RING DERIVATIVE, AND PHARMACEUTICAL COMPOSITION AND USE THEREOF” (dated 2026).

Test system: human B-cell non-Hodgkin lymphoma Karpas-422 cell line
Assay: Subcutaneous xenograft tumor model of Karpas-422 cell line in BALB/c nude mice
Experimental: • Animal species and strain: BALB/c nude mice • Administration history: no history of administration • Sex, age, weight: female, 6-8 weeks, body weight 18-25 grams • Breeder/supplier: Shanghai Model Organisms Center, Inc. • Acclimation period: no less than 3-7 days • Room: SPF area room • Indoor temperature: 20-26°C • Indoor relative humidity: 40-70% • Lighting: fluorescent lamp illumination, 12-hour light (08:00-20:00) and 12-hour dark • Animal housing: 2-6 animals per cage (same administration group) • Food: unlimited access to feed (irradiated sterilized, Shaanxi Qinle Pharmaceutical Chemical Co., Ltd., China) • Water: unlimited access to drinking water (tap water purified by ultrapure water filtration system) • Female BALB/c nude mice were purchased from the supplier and used to select animals with suitable body weight range and tumor size for enrollment. All animals were specific pathogen-free, approximately 6-8 weeks old upon arrival at the laboratory.
The human B-cell non-Hodgkin lymphoma Karpas-422 cell line used in this experiment was cultured in RPMI-1640 medium supplemented with 10% FBS in a 37°C incubator with 5% CO2. Within ten passages of continuous culture, 100 µL of PBS containing 1 × 10^7 Karpas-422 cells was mixed with an equal volume of Matrigel, and the mixture was subcutaneously inoculated into the right side of the mouse near the armpit, with an inoculation volume of approximately 200 µL. Before inoculation, mice were anesthetized with 3-4% isoflurane.
When the tumors grew to an average size of approximately 70-150 mm^3, tumor-bearing mice were randomly assigned to groups based on tumor volume and body weight, with 8 mice per group. The day of grouping and administration was defined as Day 0. […] According to the results disclosed in the reference (J. Med. Chem. 2021, 64, 14540-14556), Compound D1 (CAS: 2585648-55-9) was selected as the positive compound for this experiment.
The control group was administered intraperitoneally with 70% aqueous solution containing 5% glucose + 30% aqueous solution containing 15% HP-β-CD. Table 12. Grouping and Administration Regimen
Tumor volume: For the subcutaneous xenograft model, tumor volumes were measured twice weekly after grouping. The tumor volume (V) was calculated as follows: V = (length × width^2) / 2. The relative tumor volume (RTV) for each nude mouse was calculated as: RTV = Vt / V0, where Vt is the measured volume at each time point, and V0 is the volume at the start of treatment.
Animal body weight: After grouping, mouse body weight was measured and recorded twice weekly.
The negative control group was the control group, and the treatment groups were the groups administered D1 or H105. Results are presented as mean ± S.E.M. Comparisons between two groups were performed using Dunnett's multiple comparison test. A p-value < 0.05 was considered statistically significant.

Cn1nc(C2CCC(=O)NC2=O)c2ccc(N3CCC(CN4CCC(c5ccc(-c6cnc(NCc7c(F)ccc8c7CCO8)n7cnnc67)cc5)CC4)CC3)cc21 (stereo not drawn)
T/C (Compound D1 50 mg/kg p.o. QD, Compound H105 10 mg/kg p.o. QD): 2.69%
in vivo anti-tumor activity (in words) (Compound D1 at 50 mg/kg, Compound H105 at 10 mg/kg): could effectively inhibit tumor growth
Average body weight D0 (Day 0 (day of grouping and administration), Compound D1 50 mg/kg p.o. QD, Compound H105 10 mg/kg p.o. QD): 21.7 g
Average body weight D30 (Day 30, Compound D1 50 mg/kg p.o. QD, Compound H105 10 mg/kg p.o. QD): 21.2 g
RTV (relative tumor volume Vt/V0, Compound D1 50 mg/kg p.o. QD, Compound H105 10 mg/kg p.o. QD): 0.46
TGI (tumor growth (volume) inhibition rate, Compound D1 50 mg/kg p.o. QD, Compound H105 10 mg/kg p.o. QD): 103.43%
